Target: cathepsin D (Homo sapiens, UniProt P07339)
Test: Cathepsin D cuvette assay for IC50 and inhibition constants (Ki)
Format: biochemical
Settings: for Ki: Table IV, substrate 2.5 μM, cathepsin D 10 nM, Ki ≈ IC50 − Et/2
Source text: Compounds capable of inhibiting cathepsin D can readily be identified using the assays described herein which measure a change in the hydrolysis of a peptide substrate. More particularly, a fluorometric high through-put assay for activity toward human liver cathepsin D (Calbiochem) can be used to screen the compounds of the present invention for their ability to inhibit cathepsin D. This assay was previously described by G. A. Kraft, et al., Methods Enzymol. 241, 70-86 (1994), the teachings of which are incorporated herein by reference. […] T. Baldwin, et al., Proc. Natl. Acad. […] Generally, the reactants are mixed, the reaction is allowed to proceed for a specific period of time and the fluorescence of the reaction products is monitored to determine the extent to which the peptide substrate has been cleaved. […] 241, 70-86 (1994). As such, following the methods of the present invention, compounds can be readily synthesized and screened to identify compounds that inhibit cathepsin D. [table]

Sequences of proteins named here, by UniProt entry; tags and fusion partners are left off. Residues count along the entry.
UniProt P07339, 65-412 limits assumed: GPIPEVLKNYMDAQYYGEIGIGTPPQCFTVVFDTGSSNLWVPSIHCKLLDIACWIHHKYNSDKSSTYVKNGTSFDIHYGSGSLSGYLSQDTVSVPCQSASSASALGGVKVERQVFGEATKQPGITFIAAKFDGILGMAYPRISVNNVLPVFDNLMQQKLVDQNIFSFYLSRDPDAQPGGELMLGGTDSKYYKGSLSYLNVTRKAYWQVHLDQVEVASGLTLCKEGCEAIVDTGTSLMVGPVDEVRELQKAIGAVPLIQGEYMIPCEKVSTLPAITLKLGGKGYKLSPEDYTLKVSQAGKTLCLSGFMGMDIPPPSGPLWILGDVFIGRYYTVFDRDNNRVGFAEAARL

Row | SMILES | Ki [nM] | IC50 (Table V second generation, conditions as Table IV) [nM]
1 | CCCCCCC(=O)N(CCc1cccc(OC)c1)C[C@H](O)[C@H](Cc1ccccc1)NC(=O)CN1C(=O)CSC1=S | 595 | –
2 | O=C(COc1ccc(Cl)c(Cl)c1)N[C@@H](Cc1ccccc1)[C@H](O)CN(CCc1ccc2c(c1)OCO2)C(=O)CCN1C(=O)c2ccccc2C1=O | – | > 5000
3 | O=C(COc1cc(Cl)c(Cl)cc1Cl)N[C@@H](Cc1ccccc1)[C@H](O)CN(CCc1ccc2c(c1)OCO2)C(=O)CCN1C(=O)c2ccccc2C1=O | > 5000 | –
4 | COc1cccc(CCN(C[C@H](O)[C@H](Cc2ccccc2)NC(=O)CN2C(=O)CSC2=S)C(=O)NC2CCCCC2)c1 | 356 | –
